{
  "source": "patent US20230398123A1",
  "about": "“METHODS TO TREAT INFLAMMATORY BOWEL DISEASE” (SHANGHAI PHARMACEUTICALS HOLDING CO., LTD., priority 2021, published 2023)",
  "tested_on": "renin",
  "conditions": "low dose of 0.2 mg/kg",
  "data": [
    {"smiles": "COC(=O)NCCCn1nc([C@@H](C)N(C(=O)C2CNCCO2)C2CC2)c2ccc(C)nc21", "note": "(stereo partly shown) [Formula (I)]", "values": [
      {"measurement": "time for which activity was maintained", "result": 24, "unit": "h"}
    ]}
  ]
}
